The assay relates to Lys251 alpha-2AAR.

Take `CNC[C@H](O)c1ccc(O)c(O)c1` [epinephrine]: the “maximal extent of accumulation of inositol phosphates, Lys251 versus Asn251” value is given as “not found to be different”.
